Laboratory results as given in US20210154269A1.

Legend:
human CD47 (human) [1] = molecular target: human CD47 (human) (UniProt Q08722); test: in vitro receptor occupancy assay, at ~1 nM
human CD47 (human) [2] = molecular target: human CD47 (human) (UniProt Q08722); test: affinity for human CD47; method not stated
human CD47 (human) [3] = molecular target: human CD47 (human) (UniProt Q08722); test: cell-based or functional assay
human CD47 (human) [4] = molecular target: human CD47 (human) (UniProt Q08722); test: in vitro receptor occupancy assay (percent CD47 occupancy against concentration in nM)

F59/magrolimab (antibody)
receptor occupancy (human CD47 (human) [1]): 90%
Kd (human CD47 (human) [2]): 7 nM
EC50, PathHunter SIRPα Signaling Bioassay (human CD47 (human) [3]): 0.0744 mg/L
inhibition of SIRPα signaling at 1 nM (human CD47 (human) [3]): 80%
EC50 (read off the curve) (human CD47 (human) [4]): 0.2 nM
